Results as given in patent publication US6451853B1, “Small molecules that elicit a polarized Th1 response and for modulation of cellular immunity” (Dovetail Technologies, Inc, priority 1998, dated 2002).

System: TNF-R I on T cells (PBMCs)
Assay: TNF receptor I expression on T cells by FACS
Conditions: stimulated T cells, 20 mM beta-alethine

NCCC(=O)NCCSSCCNC(=O)CCN [BT, beta-alethine]
share of T-cell population with elevated TNF-R I expression relative to PMA/ionomycin alone: over 50%
